Results reported in patent US10471059B2, “Compositions and methods of using tyrosine kinase inhibitors” (YALE UNIVERSITY, priority 2015, dated 2019).

Tested on: Mouse embryonic fibroblasts (MEFs) from Ptpn11^D61G/+ mice
Conditions: 18 hr

| SMILES | PZR tyrosyl phosphorylation (MEFs from Ptpn11D61G/+ mice) | c-Src, ERK1/2 and PZR tyrosyl phosphorylation (MEFs from NS mice) | PZR/Shp2 complex formation (MEFs from NS mice, immunoprecipitation) | Raf-1, MEK1, JNK and Akt phosphorylation (NS-derived MEFs) |
| --- | --- | --- | --- | --- |
| Cc1ccc(NC(=O)c2ccc(CN3CCN(C)CC3)cc2)cc1Nc1nccc(-c2cccnc2)n1 [STI-571] | ineffective | – | – | – |
| Cc1nc(Nc2ncc(C(=O)Nc3c(C)cccc3Cl)s2)cc(N2CCN(CCO)CC2)n1.O [Dasatinib, N-(2-chloro-6-methylphenyl)-2-[[6-[4-(2-hydroxyethyl)-1-piperazinyl]-2-methyl-4-pyrimidinyl]amino]-5-thiazole carboxamide monohydrate] | – | blocked | disruption | inhibited |
